Laboratory results reported in ChEMBL document CHEMBL1134405 (J Med Chem, 2001).

Biological target: Adenylate cyclase (Rattus norvegicus) (UniProt D4A3N4+P26770+Q04400+P26769+Q03343+P40146+Q8CFM9+P21932)
Assay: Relative potency was evaluated by measuring potency for conversion of [alpha-32P]ATP to cyclic 3',5'-AMP relative to glucagon
Format: protein assay

Question: GLUCAGON was tested. Which Relative potency did it give?
Answer: Its Relative potency is 100%.
